How the values were obtained:
[1] = Fluorescence correlation spectroscopy (FCS), hydrodynamic radius in water and blood plasma; type: physicochemical; details: for increase in hydrodynamic radius after incubation in blood plasma: indicates no major protein corona formation
[2] = Dynamic light scattering (DLS) size determination; type: physicochemical; details: 1 mg/mL, 25 °C, PBS or MQ (volume distribution in PBS used)
Procedure: DLS measurements of the compounds (1mg/mL in PBS or MQ) were performed at 25 °C using a Malvern ZetaSizer Nano S purchased from Malvern Instruments Ltd. (Malvern, Great Britain) with a He/Ne Laser (λ = 633 nm) and a narrow band filter at a fixed scattering angle of 173°. Volume distribution of DLS measurements of nanocarriers in PBS was used to determine their size range.

[3] = system: GM-CSF differentiated BMDC; test: FACS analysis of uptake by GM-CSF differentiated BMDC; type: cell-based, Murine; details: incubated on ice at 1 nM and 10 nM, n=1
Procedure: Graphs show uptake after overnight incubation in various primary cells. "DBCO: 40" (^Cy5HSA-(DBCO)40) serves as positive control for unspecific uptake because a) DBCO groups can intercalate into the cell membrane and promote thereby cell internalization and b) so far we can only convert 80% of DBCO groups in the Click reaction with the TM - Therefore, some "free" DBCO groups are always existent, even though it is likely that they are buried within hydrophobic pockets of HSA since they are not reacting with N3-TM.
Saturation of TM-mediated uptake from around 20 TM/HSA on. Concentration series uptake (top right) confirms saturation of cells since no increased uptake is observed in increased concentrations.
(A,B) GM-CSF- or (C-E) FLT3L-differentiated BMDC were incubated with nanocarriers or R848 (1 µg/ml) o.n., stained and subjected to flow cytometric analyses. GM-CSF differentiated BMDC were discriminated as follows: FVD^-CD11c^+. FLT3L-differentiated cells were discriminated as described in Fig. 18-20. n=4. (A) MFI of surface activation marker CD86 expression. (B-E) MFI of Cy5 signal (nanocarrier binding or uptake). […]
Flow cytometry. […] Following this, samples were incubated with fluorescence-labeled antibodies (20 min, 4 °C). […] Measurements were carried out using an Attune NxT flow cytometer and data were analyzed using Attune NxT software (both Thermo Fisher, Waltham, MA, USA)

CHO^MMR+ cells = test: Cell uptake by confocal microscopy; type: cell-based, chinese hamster; details: 1µM for 24 hours
Procedure: (§1) CHO cells were obtained from Prof. Lutz Nuhn. These cells were transfected as described in Martinez-Pomares et al., 2003, Journal of Leukocyte Biology (73), 604-613.
CHO^MMR+ cells were incubated with ^SCy5HSA-(TM)34.1 1µM for 24 hours and then analysed at confocal microscopy.

CHO^MMR+ = test: Cell uptake by FACS / flow cytometry, MMR-positive cells; type: cell-based, chinese hamster; details: 24h, 0.1 µM
Excerpt: as §1
(§2) Uptake Efficiency correlated positively with amount of TM on HSA surface. HSA without trimannose (Ctrl) was not uptaken in neither cell line (Figure 11).
(§3) Increased TM-Amount on HSA correlates positively with increased uptake. 3-10 TM groups / HSA were sufficient for this transfected cell line. For further studies the inventor still chose >30 TM groups/HSA because a) they stabilize the carrier during denaturation for loading procedure due to hydrophilicity b) they support backfolding after drug loading (hydrophilic parts outside).

CHO-K1 cells (MMR-) = test: Cell uptake by FACS / flow cytometry, MMR-negative cells; type: cell-based, chinese hamster; details: 24h, 0.1 µM
Excerpt: as §2, §3

Substance: TM-^Cy5HSA-Benzyl: dye-labeled HSA with TM on the surface, completely denatured, decoy-loaded and backfolded; Benzyl:HSA = 25.2 : 1
- calculated hydrodynamic radius ([1]; in water): 12 nm
- increase in hydrodynamic radius after incubation in blood plasma [1]: only a slight increase
- increase in hydrodynamic radius after incubation in blood plasma ([1]; listed as benzyl (decoy) loaded HSA nanocarrier): no major increase
- sizes (d.nm), volume distribution [2]: 9.51 ± 2.76 nm
- time-dependant uptake [3]: extremely fast association/uptake

Substance: TM-^Cy7.5HSA-Benzyl: Sulfo-Cy7.5 labeled HSA with TM on the surface, decoy-loaded and backfolded; Benzyl-HSA = 12 : 1
- sizes (d.nm), volume distribution [2]: 12.73 ± 9.75 nm

Substance: ^Cy5HSA-(TM)34.1: dye-labeled HSA with TM groups clicked to the DBCO on the surface (dye-labeled mannosylated HSA), about 34 TM per HSA
- uptake (red fluorescence signal) (CHO^MMR+ cells): efficiently uptaken

Substance: TM-^Cy7.5HSA-TM: probably unloaded trimannosylated Sulfo-Cy7.5 labeled HSA (Figure 8 legend)
- sizes (d.nm), volume distribution [2]: 10.71 ± 2.85 nm

Substance: ^Cy5HSA: Sulfo-Cy5 labeled HSA with ring-opened maleimide, without trimannose and without cargo (control)
- uptake (Cy5 fluorescence) (CHO^MMR+): not uptaken
- uptake (Cy5 fluorescence) (CHO-K1 cells (MMR-)): not uptaken

— patent EP4603108A1, “HUMAN SERUM ALBUMIN BASED NANOCARRIERS FOR TARGETED IMMUNOTHERAPY” (Max-Planck-Gesellschaft zur Förderung der Wissenschaften …, priority 2024, dated 2025)
